The values that follow come from US7384914B2, “Night-time oral insulin therapy” (Emisphere Technologies, Inc., priority 2003, dated 2008).

For series [1] the following is noted: monkeys, oral, toxicology studies with 4-CNAB.
The nature of series [2]: Oral insulin absorption in rats at varying doses of insulin and 4-CNAB (serum insulin). The following applies: oral aqueous solution, insulin alone 13 Units/kg.

On to insulin, for which the “absolute bioavailability of insulin” value in series [1] was no more than 1%. Besides, in series [2], the “increase in serum insulin levels” value was “did not result in any significant increases”.
